Assay results from paper PMC12302718, “Molecular basis for Gβγ-SNARE-mediated inhibition of synaptic vesicle fusion” (The Journal of Biological Chemistry, 2025).

Target: Gβ1γ2
Experiment: Alphascreen direct binding assay (concentration response of His-tagged Gβ1γ2)
Conditions: read-out: Affinity of Gβ1γ2 for the biotinylated partner (EC50), 20 nM biotinylated protein, His-tagged Gβ1γ2 0.1 nM - 1 μM, three technical replicates
Method: Nb5 binds to the center of the Gβ1 β-propeller domain ([53]) and is not expected to hinder interactions involving the N-terminal coiled-coil domain. […] The means ± SD of three technical replicates are shown.
Alphascreen acceptor beads were added to each well to a final concentration of 20 μg/ml and incubated for 30 min. 20 μg/ml Alphascreen donor beads were then added prior to incubation in a plate shaker for 1 h. Plates were read in a Biotek Synergy Neo. Concentration response curves were analyzed in GraphPad prism to derive EC50 values. […] Nb5 was added in concentrations ranging from 0.4 nM to 1.26 μM.

EC50: 351 nM
Substance: SNAP25: synaptosomal-associated protein-25, full-length, biotinylated
